Experimental findings from BindingDB's records for US9162983 are described below.

By UniProt entry, the sequences of proteins in these tests, tags left out. Residues count along the entry.
UniProt P22303, 32-614 limits assumed: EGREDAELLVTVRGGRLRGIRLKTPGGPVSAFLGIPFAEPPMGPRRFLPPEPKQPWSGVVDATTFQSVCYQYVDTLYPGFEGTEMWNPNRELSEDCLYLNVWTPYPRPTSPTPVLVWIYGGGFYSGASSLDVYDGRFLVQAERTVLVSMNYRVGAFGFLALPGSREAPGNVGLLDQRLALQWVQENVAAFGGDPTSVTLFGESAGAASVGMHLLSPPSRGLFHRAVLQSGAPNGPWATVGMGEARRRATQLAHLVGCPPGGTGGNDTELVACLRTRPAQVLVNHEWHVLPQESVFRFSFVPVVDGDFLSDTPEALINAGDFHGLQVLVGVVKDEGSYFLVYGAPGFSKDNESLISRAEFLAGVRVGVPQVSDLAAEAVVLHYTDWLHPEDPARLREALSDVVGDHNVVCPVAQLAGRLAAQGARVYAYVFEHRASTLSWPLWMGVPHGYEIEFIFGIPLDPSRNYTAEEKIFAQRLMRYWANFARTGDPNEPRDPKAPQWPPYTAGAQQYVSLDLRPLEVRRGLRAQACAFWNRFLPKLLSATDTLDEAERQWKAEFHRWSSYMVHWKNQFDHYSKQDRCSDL

This experiment addresses Acetylcholinesterase (Homo sapiens, UniProt P22303). The experiment can be described thus: Enzyme Inhibition Assay.

The structures appear in SMILES notation.

`CC(=O)/C(=N\O)C(=O)NCC1CCN(Cc2ccccc2)CC1` yielded a Ki of 2.3 µM.

In the case of `O=C(/C=N/O)c1cccnc1OCC1CCN(Cc2ccccc2)CC1`, the Ki was 0.18 µM. This Ki is about 13-fold lower than that of the molecule before.
